# Measured values reported in patent publication US12564650B2, “Carbonic anhydrase IX-targeting radioactive diagnostic and therapeutic medicament and method for preparing same” (NORROY BIOSCIENCE CO., LTD., priority 2022, dated 2026).
# System: renal clear cell carcinoma and metastases
# Conditions: human, in vivo
substance,measurement,value
^18F-FDG,PET/CT imaging findings,abnormal mass in right kidney and metastasis to both lungs and mediastinal lymph nodes
